The results in this text go back to patent publication US20220280527A1, “TRACE AMINE ASSOCIATED RECEPTOR 1 AGONISTS AND PARTIAL AGONISTS FOR PAIN TREATMENT” (Purdue Pharma L.P., priority 2016, published 2022).

Sequences of proteins named here, by UniProt entry; tags and fusion partners are left off. A change or cut given only in a name is not applied to a line headed by its entry.
UniProt Q96RJ0: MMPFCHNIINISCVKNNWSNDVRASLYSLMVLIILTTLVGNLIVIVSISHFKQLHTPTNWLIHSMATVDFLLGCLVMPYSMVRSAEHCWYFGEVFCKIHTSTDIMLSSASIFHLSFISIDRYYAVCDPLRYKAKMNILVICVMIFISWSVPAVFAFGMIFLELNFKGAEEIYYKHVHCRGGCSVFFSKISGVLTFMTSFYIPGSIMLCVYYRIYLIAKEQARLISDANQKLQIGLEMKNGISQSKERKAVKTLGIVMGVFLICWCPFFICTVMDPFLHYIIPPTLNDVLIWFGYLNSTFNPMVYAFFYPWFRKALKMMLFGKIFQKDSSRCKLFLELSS

This experiment concerns the target hTAAR1 (Homo sapiens, UniProt Q96RJ0). Kind of experiment: hTAAR1 functional assay (cAMP). The format is cell-based. The settings on record: read-out: hTAAR1 EC50 (mean ± SEM (n)).

By EC50 is commonly meant the concentration giving half of the maximal effect. `NC1=N[C@@H](c2ccc(Cl)c(Cl)c2)CO1`: the EC50 was 0.0834 µM.
